Series [1] can be described thus: Dynamic interfacial tension of surfactant solution/crude oil (rising/captive bubble tensiometry). The note with it: time for IFT to reach half of its value between γo and γm; 0.1% wt surfactant, municipal water/crude oil, ambient conditions. It counts as physicochemical. How it is done:
Interfacial tension tests were carried out in accordance with the invention. Dynamic IFT and contact angles were measured using rising/captive bubble tensiometry enhanced by image acquisition with a high-resolution Charged Coupled Device (CCD) digital camera and apochromatically-corrected lens. The apparatus includes a Hastelloy measurement cell, a Hastelloy dual-cylinder pulse-free Quizix pump (to provide constant flow rate and pressure), a temperature control module, a data acquisition computer, an oven, and an in-line density meter (Anton Paar DMA HPM) to measure the density of fluids at actual experimental conditions. The system tolerates reservoir conditions with pressures and temperatures up to 10,000 psi and 150° C., respectively (V. Mirchi, S. Saraji, L. Goual, M. Piri, Dynamic interfacial tension and wettability of shale in the presence of surfactants at reservoir conditions, Fuel, vol. 148, pp. 127-138, 2015). […]
In addition, the dynamic IFT of certain surfactants was measured at reservoir conditions. In particular, the impact of elevated temperatures and pressures on the performance of these surfactants was evaluated. IFT values of crude oil and surfactant solutions were measured at 6840 psi and 120° C. […]

Series [2] is described as follows: Cloud point temperature (CPT) of surfactant solutions. It counts as physicochemical. The method, then: Investigation on the effect of structural arrangement of POE surfactants including alkyl chain and ethylene oxide on solubility of surfactants was accomplished by cloud point measurements. Surfactant solutions were injected into a Hastelloy measurement cell using a Quizix pump. After reaching reservoir pressure (6840 psi), surfactant solutions were heated using a heating jacket (Glas-col, LLC) firmly wrapped around the measurement cell. The temperature was gradually raised (≈ 0.4° C./min) from ambient temperature to 120° C. (reservoir temperature). A mounted resistance temperature detector (RTD) inside the measurement cell (with accuracy of ±0.1° C.) was used to check the internal temperature. Surfactant solutions were then monitored visually by a digital camera attached to a microscope. The temperature above which surfactant solutions became turbid was identified as the CPT.
The CPTs of certain selected surfactants were also measured at atmospheric pressure in a water bath.

Results on 1 substance are retold here after patent US10995260B2, “Methods for determining an optimal surfactant structure for oil recovery” (University of Wyoming, priority 2017, dated 2021).

On to “Poly(ethylene glycol)(18) tridecyl ether [EO-18]”, for which the “t*” value in series [1] is 3.5 min. The aqueous solubility result in series [2] (solution became cloudy at reservoir temperatures) is given as “good aqueous solubility”. For the same substance, in series [2] (surfactant solution, FIG. 4 at 6840 psi), the “cloud point temperature (CPT)” value amounted to 109.6 °C.
